In ChEMBL document CHEMBL4265938, “Donepezil-based multi-functional cholinesterase inhibitors for treatment of Alzheimer's disease” (Eur J Med Chem, 2018):

Test: Antioxidant activity assessed as trolox equivalent of AAPH-induced radical scavenging activity at 70 nM preincubated for 15 mins followed by AAPH addition measured every min for 80 mins by ORAC-FL assay
Type: functional

COc1cc(/C=C/C(=O)O)ccc1O
Activity: 3.74 equiv
